For one molecule, Kd results are on record in publication PMC12767058, “HERV‐K TM Subunit Elicits CD8^+ T Cell Anergy and Tumor Immune Evasion via Targeting CD3 Coreceptor ε in AML and PDAC” (Advanced Science, 2025).

The target in the assay is T1, purified recombinant nonglycosylated K-TM protein (human, UniProt Q69384 466-699).
T1 construct: K-TM subunit of HERV-K Env; One partner of the BLI was biotinylated and held on an SA chip; source: prokaryotic expression system, purified
T1 sequence: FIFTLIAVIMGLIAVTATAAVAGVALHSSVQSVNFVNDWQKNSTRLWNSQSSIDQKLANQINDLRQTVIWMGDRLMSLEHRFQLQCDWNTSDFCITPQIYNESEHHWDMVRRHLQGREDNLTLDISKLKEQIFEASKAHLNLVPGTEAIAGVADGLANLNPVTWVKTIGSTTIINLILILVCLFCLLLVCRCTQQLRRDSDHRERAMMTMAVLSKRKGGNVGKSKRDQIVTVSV
Description: BLI; Octet R8; one protein biotinylated and immobilised on an SA chip (which one is not said), the other in twofold dilutions in PBST; association 200 s, dissociation 300 s. To be noted: both partners purified. Background: Biolayer interferometry detects binding as a change in optical thickness at a sensor tip.

B1: nonglycosylated CD3ε protein (recombinant) (receptor)
chain: DGNEEMGGITQTPYKVSISGTTVILTCPQYPGSEILWQHNDKNIGGDEDDKNIGSDEDHLSLKEFSELEQSGYYVCYPRGSKPEDANFYLYLRARVCENCMEMDVMSVATIVIVDICITGGLLLLVYYWSKNRKAKAKPVTRGAGAGGRQRGQNKERPPPVPNPDYEPIRKGQRDLYSGLNQRRI
notes: CD3ε; nothing is said of the recombinant protein itself; source: prokaryotic expression system, purified
As usually defined, the Kd is a measure of binding affinity in units of concentration. For B1, the Kd came to 67.7 nM.
